# Reference: patent US6936585B2, “Corticotropin releasing factor 2 receptor agonists” (priority 2002, dated 2005)
# Assays:
# CRF2R = target: T1, CRF2R (Homo sapiens, UniProt Q13324); assay: CRF2R agonist activation (EC50 / Emax), called comparative CRF binding; type: cell-based; details: for Emax: read-out: CRF2R Emax
# T1 sequence (Q13324 1-411): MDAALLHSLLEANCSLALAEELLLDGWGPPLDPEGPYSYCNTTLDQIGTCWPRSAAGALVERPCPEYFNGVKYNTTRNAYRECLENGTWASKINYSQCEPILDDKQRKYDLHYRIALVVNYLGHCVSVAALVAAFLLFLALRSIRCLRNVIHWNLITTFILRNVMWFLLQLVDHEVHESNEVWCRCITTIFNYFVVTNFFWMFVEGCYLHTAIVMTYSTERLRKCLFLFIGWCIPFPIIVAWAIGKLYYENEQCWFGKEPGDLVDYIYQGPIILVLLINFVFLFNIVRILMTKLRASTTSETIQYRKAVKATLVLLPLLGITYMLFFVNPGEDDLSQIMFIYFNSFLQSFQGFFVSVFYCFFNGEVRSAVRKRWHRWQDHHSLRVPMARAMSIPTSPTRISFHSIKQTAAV
# In short: (§1)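 Peptides are tested on cells bearing CRF1R or CRF2R, full length or as ligand-binding-domain constructs coupled to reporters or G proteins. Activation is scored by cAMP rise, measured in lysates or by CRE-reporter output, against vehicle control.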
# CRF1R = target: T2, CRF1R (Homo sapiens, UniProt P34998); assay: CRF1R agonist activation (EC50 / Emax), called comparative CRF binding; type: cell-based; details: for Emax: read-out: CRF1R Emax
# T2 sequence (P34998 24-415): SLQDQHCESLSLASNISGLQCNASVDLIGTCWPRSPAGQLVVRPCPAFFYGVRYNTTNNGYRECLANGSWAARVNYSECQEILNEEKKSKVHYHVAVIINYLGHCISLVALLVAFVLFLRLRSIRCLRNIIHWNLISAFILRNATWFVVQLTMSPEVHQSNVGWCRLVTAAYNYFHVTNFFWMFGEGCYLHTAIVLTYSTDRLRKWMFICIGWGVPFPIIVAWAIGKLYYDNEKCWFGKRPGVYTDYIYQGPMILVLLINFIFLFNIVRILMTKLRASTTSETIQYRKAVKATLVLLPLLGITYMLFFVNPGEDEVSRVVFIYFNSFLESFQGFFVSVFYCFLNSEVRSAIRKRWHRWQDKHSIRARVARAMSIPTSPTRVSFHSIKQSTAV
# In short: as §1
SMILES,Emax (CRF2R) [%],Emax (CRF1R) [%],EC50 (CRF2R) [nM],EC50 (CRF1R; CRF1R EC50) [nM]
CC[C@H](C)[C@H](NC(=O)[C@@H](NC(=O)[C@H](C)NC(=O)[C@H](CC(C)C)NC(=O)[C@H](CC(C)C)NC(=O)[C@H](CC(C)C)NC(=O)[C@H](C)NC(=O)[C@H](CC(N)=O)NC(=O)[C@H](CC(N)=O)NC(=O)[C@H](C)NC(=O)[C@H](C)NC(=O)[C@H](CCC(N)=O)NC(=O)[C@H](CCC(N)=O)NC(=O)[C@H](CCCCN)NC(=O)[C@H](CCC(=O)O)NC(=O)[C@H](CCCCN)NC(=O)[C@H](CCC(=O)O)NC(=O)[C@H](CCC(N)=O)NC(=O)[C@H](CCCCN)NC(=O)[C@H](CCC(=O)O)NC(=O)[C@@H](NC(=O)[C@H](CCC(=O)O)NC(=O)[C@@H](NC(=O)[C@@H](NC(=O)[C@H](CCCCN)NC(=O)[C@H](CCCNC(=N)N)NC(=O)[C@H](CC(C)C)NC(=O)[C@H](CC(C)C)NC(=O)[C@H](Cc1ccccc1)NC(=O)[C@@H](NC(=O)[C@@H]1CCCN1C(=O)[C@H](CC(C)C)NC(=O)[C@H](CC(=O)O)NC(=O)[C@@H](NC(=O)[C@H](CO)NC(=O)[C@@H](NC(=O)[C@@H]1CCCN1C(=O)[C@@H]1CCCN1C(=O)CNC(=O)[C@@H]1CCC(=O)N1)[C@@H](C)CC)[C@@H](C)CC)[C@@H](C)CC)C(C)C)[C@@H](C)CC)[C@@H](C)CC)[C@@H](C)O)C(N)=O [compound 280],82.3,11.8,–,–
CC[C@H](C)[C@H](NC(=O)[C@H](CCCNC(=N)N)NC(=O)[C@H](C)NC(=O)[C@H](CC(N)=O)NC(=O)[C@@H](NC(=O)[C@@H](NC(=O)[C@H](C)NC(=O)[C@H](CCC(N)=O)NC(=O)[C@H](CCC(N)=O)NC(=O)[C@H](CCCCN)NC(=O)[C@H](CCC(=O)O)NC(=O)[C@H](CCCCN)NC(=O)[C@H](CCC(=O)O)NC(=O)[C@H](CCC(N)=O)NC(=O)[C@H](CCCCN)NC(=O)[C@H](CCC(=O)O)NC(=O)[C@@H](NC(=O)[C@H](CCC(=O)O)NC(=O)[C@@H](NC(=O)[C@H](CCSC)NC(=O)[C@H](CCCCN)NC(=O)[C@H](CCCNC(=N)N)NC(=O)[C@H](CC(C)C)NC(=O)[C@H](CC(C)C)NC(=O)[C@H](Cc1ccc(O)cc1)NC(=O)[C@H](CC(C)C)NC(=O)[C@@H]1CCCN1C(=O)[C@H](CC(C)C)NC(=O)[C@H](CC(=O)O)NC(=O)[C@@H](NC(=O)[C@H](CO)NC(=O)[C@@H](NC(=O)[C@@H]1CCCN1C(=O)[C@@H]1CCCN1C(=O)CNC(=O)[C@@H]1CCC(=O)N1)[C@@H](C)CC)[C@@H](C)CC)[C@@H](C)CC)[C@@H](C)CC)[C@@H](C)O)[C@@H](C)O)C(=O)N[C@@H](CC(C)C)C(=O)N[C@@H](C)C(=O)N[C@@H](CCCNC(=N)N)C(=O)N[C@H](C(N)=O)C(C)C [compound 353],89.9,92.2,–,–
CC[C@H](C)[C@H](NC(=O)[C@H](CCCNC(=N)N)NC(=O)[C@H](C)NC(=O)[C@H](CC(N)=O)NC(=O)[C@@H](NC(=O)[C@@H](NC(=O)[C@H](C)NC(=O)[C@H](CCC(N)=O)NC(=O)[C@H](CCC(N)=O)NC(=O)[C@H](CCCCN)NC(=O)[C@H](CCC(=O)O)NC(=O)[C@H](CCCCN)NC(=O)[C@H](CCC(=O)O)NC(=O)[C@H](CCC(N)=O)NC(=O)[C@H](CCCCN)NC(=O)[C@H](CCC(=O)O)NC(=O)[C@@H](NC(=O)[C@H](CCC(=O)O)NC(=O)[C@@H](NC(=O)[C@H](CCSC)NC(=O)[C@H](CCCCN)NC(=O)[C@H](CCCNC(=N)N)NC(=O)[C@H](CC(C)C)NC(=O)[C@H](CC(C)C)NC(=O)[C@H](Cc1ccc(O)cc1)NC(=O)[C@@H](NC(=O)[C@@H]1CCCN1C(=O)[C@H](CC(C)C)NC(=O)[C@H](CC(=O)O)NC(=O)[C@@H](NC(=O)[C@H](CO)NC(=O)[C@@H](NC(=O)[C@@H]1CCCN1C(=O)[C@@H]1CCCN1C(=O)CNC(=O)[C@@H]1CCC(=O)N1)[C@@H](C)CC)[C@@H](C)CC)[C@@H](C)O)[C@@H](C)CC)[C@@H](C)CC)[C@@H](C)O)[C@@H](C)O)C(=O)N[C@@H](CC(C)C)C(=O)N[C@@H](C)C(=O)N[C@@H](CCCNC(=N)N)C(=O)N[C@H](C(N)=O)C(C)C [compound 151],96,19.9,–,–
CC[C@H](C)[C@H](NC(=O)[C@H](CCC(=O)O)NC(=O)[C@@H](NC(=O)[C@H](CCSC)NC(=O)[C@H](CCCCN)NC(=O)[C@H](CCCNC(=N)N)NC(=O)[C@H](CC(C)C)NC(=O)[C@H](CC(C)C)NC(=O)[C@H](Cc1ccc(O)cc1)NC(=O)[C@H](CC(C)C)NC(=O)[C@@H]1CCCN1C(=O)[C@H](CC(C)C)NC(=O)[C@H](CC(=O)O)NC(=O)[C@@H](NC(=O)[C@H](CO)NC(=O)[C@@H](NC(=O)[C@@H]1CCCN1C(=O)[C@@H]1CCCN1C(=O)CNC(=O)[C@@H]1CCC(=O)N1)[C@@H](C)CC)[C@@H](C)CC)[C@@H](C)CC)C(=O)N[C@@H](CCC(=O)O)C(=O)N[C@@H](CCCCN)C(=O)N[C@@H](CCC(N)=O)C(=O)N[C@@H](CCC(=O)O)C(=O)N[C@@H](CCCCN)C(=O)N[C@@H](CCC(=O)O)C(=O)N[C@@H](CCCCN)C(=O)N[C@@H](CCC(N)=O)C(=O)N[C@@H](CCC(N)=O)C(=O)N[C@@H](C)C(=O)N[C@H](C(=O)N[C@H](C(=O)N[C@@H](CC(N)=O)C(=O)N[C@@H](C)C(=O)N[C@@H](CCCNC(=N)N)C(=O)N[C@@H](CC(C)C)C(=O)N[C@@H](CC(C)C)C(=O)N[C@@H](CC(=O)O)C(=O)N[C@H](C(=O)N[C@H](C(N)=O)C(C)C)[C@@H](C)O)[C@@H](C)O)[C@@H](C)O [compound 242],94,99,–,–
CC[C@H](C)[C@H](NC(=O)[C@H](CCCNC(=N)N)NC(=O)[C@H](C)NC(=O)[C@H](CC(C)C)NC(=O)[C@H](CC(C)C)NC(=O)[C@H](CCCNC(=N)N)NC(=O)[C@H](C)NC(=O)[C@H](CC(N)=O)NC(=O)[C@H](CC(N)=O)NC(=O)[C@H](C)NC(=O)[C@H](C)NC(=O)[C@H](CCC(N)=O)NC(=O)[C@H](CCC(N)=O)NC(=O)[C@H](CCCCN)NC(=O)[C@H](CCC(=O)O)NC(=O)[C@H](CCCCN)NC(=O)[C@H](CCC(=O)O)NC(=O)[C@H](CCC(N)=O)NC(=O)[C@H](CCCCN)NC(=O)[C@H](CCC(=O)O)NC(=O)[C@@H](NC(=O)[C@H](CCC(=O)O)NC(=O)[C@@H](NC(=O)[C@H](CCSC)NC(=O)[C@H](CCCCN)NC(=O)[C@H](CCCNC(=N)N)NC(=O)[C@H](CC(C)C)NC(=O)[C@H](CC(C)C)NC(=O)[C@H](Cc1c[nH]c2ccccc12)NC(=O)[C@H](Cc1ccc(O)cc1)NC(=O)[C@@H]1CCCN1C(=O)[C@H](CC(C)C)NC(=O)[C@H](CC(=O)O)NC(=O)[C@@H](NC(=O)[C@H](CO)NC(=O)[C@@H](NC(=O)[C@@H]1CCCN1C(=O)[C@@H]1CCCN1C(=O)CNC(=O)[C@@H]1CCC(=O)N1)[C@@H](C)CC)[C@@H](C)CC)[C@@H](C)CC)[C@@H](C)CC)C(N)=O [compound 289],97.3,69.5,12.2,≥ 1000
